In patent US11344546B2, “Benzamide compounds” (Recurium IP Holdings, LLC, priority 2018, dated 2022):

System: HIV-1 (IIIB strain) infected primary CD4 T cells
Test: Measurement of caspase release in mock and HIV-1 (IIIB strain) infected CD4 cells
Assay type: cell-based, human
Conditions: HIV-1IIIb vs mock infected, IncuCyte Caspase 3/7, FIG. 5

## CC1(C)CCC(CN2CCN(c3ccc(C(=O)NS(=O)(=O)c4ccc(OCC5(F)CCOCC5)c([N+](=O)[O-])c4)c(Oc4cnc5[nH]ccc5c4)c3)CC2)=C(C23CC(C(F)F)(C2)C3)C1 [Example 36, 2-((1H-pyrrolo[2,3-b]pyridin-5-yl)oxy)-4-(4-((2-(3-(difluoromethyl)bicyclo[1.1.1]pentan-1-yl)-4,4-dimethylcyclohex-1-en-1-yl)methyl)piperazin-1-yl)-N-((4-((4-fluorotetrahydro-2H-pyran-4-yl)methoxy)-3-nitrophenyl)sulfonyl)benzamide]
  selectivity in killing HIV vs. mock infected cells (Caspase 3/7 cell death): exhibit selectivity in killing HIV vs. mock infected cells
